## Measured affinities in a library of Ab-14 light chain variants

The measurements come from Li et al. 2023 (doi:10.1038/s41467-023-39022-2) through the FLAb antibody collection.

Antigen: PDVDLGDISGINAS, a 14-residue peptide of the SARS-CoV-2 spike HR2 region.

Each scFv is VH, the linker GGGGSGGGGSGGGGS, VL, as in the parent Ab-14, and differs from it in the CDRs of the light chain only.
VH: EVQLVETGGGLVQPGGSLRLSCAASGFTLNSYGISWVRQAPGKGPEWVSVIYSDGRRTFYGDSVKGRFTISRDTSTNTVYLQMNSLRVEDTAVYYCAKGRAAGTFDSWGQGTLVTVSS
VL: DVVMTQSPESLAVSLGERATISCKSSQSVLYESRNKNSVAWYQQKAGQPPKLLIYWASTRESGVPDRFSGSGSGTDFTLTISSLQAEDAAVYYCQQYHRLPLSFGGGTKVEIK

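The starting antibody came from a phage panning campaign against this peptide. These sequences belong to a second round, designed from the earlier measurements on random variants of the parent. Several design methods are mixed in this list. AlphaSeq pools MATa yeast showing the antibodies with MATalpha yeast showing the peptide. The frequency of each diploid, read from paired DNA barcodes, reflects how well the two displayed proteins bind. Each replicate has its own calibration line, from reference interactions of the BCL2 family. Each pool was mated in six replicate cultures.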

Substitutions are numbered in sequence along the VL above, starting at 1 (not Kabat).
This list holds designs with at most six substitutions.
The Kd shown is the geometric mean over detected replicates; a lower Kd is a better binder.
A pair that was not seen in any replicate is written "not detected"; this usually means weak binding, but a binder can also be missed.
Of ten entries with the parent sequence, four were seen in most replicates (averages 2.2 nM to 240 nM), three in one and three in none, so single entries are noisy.
Nonspecific signal, from three strains lacking the peptide, appeared in 4% of pairings of all light chain designs, centred on 430 nM (5% of these signals below 38 nM); values are not corrected for it.
Values of this round are not directly comparable with the first-round values of the same sequences.
The authors' rule: three or more of the six replicates give a measured affinity, fewer mean a poor binder.

changes	Kd	detected
S28T L30A W56R	97 nM	5/6
Q27L Y31N W56K T59I S62R H98A	19 nM	6/6
Q27W V29Y W56A	6.9 nM	6/6
S25L S26W W56N T59Q	550 pM	6/6
S25L V29D W56N T59Q S62Q	590 pM	6/6
S28V L30G Y31M K36S W56D	1.4 nM	6/6
S25F Q27G V29Q W56N	1.7 nM	6/6
K24H Q27P L30E W56N T59M	850 pM	6/6
S25T S33W W56D	2.7 nM	6/6
S25V V29I K36D N37S S58D	300 nM	6/6
S26G S28G V29Q W56G T59Q E61W	21 nM	6/6
S26M Y31G R34D W56A	5.4 nM	6/6
K24H Q27P V29E L30A W56N	1.4 nM	6/6
S25L S26M W56H S62D R99Q	1.5 nM	6/6
S25L Q27S V29W W56N	530 pM	6/6
S25L Q27T S38Q W56S	410 pM	6/6
S25M S26L W56H S62D	1.1 nM	6/6
S25L S26Q L30P W56E E61C	830 pM	6/6
S25L Q27G V29Q W56Q	330 pM	6/6
S25L S26M V29M W56N T59Y	560 pM	6/6
S25L S28L V29E W56N E61L	860 pM	6/6
Y31N S103Q	94 nM	6/6
Y31V W56H E61T	26 nM	6/6
W56G T59E Y97P	not detected	0/6
R34Y P101W	not detected	0/6
S28A V29E N35H W56N T59Y S62D	2.7 nM	6/6
L30I S33D R34E W56E L100Y	140 nM	6/6
S25V S26M L30P W56E T59Q S62L	1.6 nM	6/6
S25F W56N S103M	890 pM	6/6
S25V S26M S33G W56H S62D	830 pM	6/6
S25L A57D T59Q H98Q	3.1 nM	6/6
S33F W56G L100M	26 nM	6/6
S25V S33Q N35M N37Q W56N T59E	2.3 nM	6/6
S26P V29W W56G T59F	560 pM	6/6
S25H V29E Y31M W56D	620 pM	6/6
S25L K36S W56G	11 nM	6/6
S25I S33D W56N T59Q	500 pM	6/6
K24Q W56D E61P	2.5 nM	6/6
Y31D E32Q R34E W56D A57C	6.9 nM	6/6
S25I W56R	1.6 nM	6/6
S25V V29E L30D W56N	730 pM	6/6
S25F S58Q L100M	4.4 nM	6/6
V29W W56N T59L	470 pM	6/6
S25L K36W W56N E61M	220 pM	6/6
S25L S26P V29G W56E S62V	620 pM	6/6
S25Q K36C W56D H98V	5.4 nM	6/6
L30P Y31F W56D	920 pM	6/6
S25L V29E L30P W56N	2.0 nM	6/6
S25L W56E T59Q	1.3 nM	6/6
Q27P L30P W56N S62E	1.4 nM	6/6
R34Q	not detected	0/6
V29N L30E S33N W56E H98W	890 pM	6/6
S25L K36S W56N S62V	1.4 nM	6/6
S25Q S28Q V29F W56D S58N	400 pM	6/6
S25L S26Q V29T N35M W56N	3.4 nM	6/6
S25L V29D S38N W56A	250 pM	6/6
W56D E61C Y97W	720 pM	6/6
K24H S25L Q27P W56D	680 pM	6/6
S33G R34S V39I W56D	2.3 nM	6/6
S25L L30V W56N E61L	790 pM	6/6
S25F S26E V29Q W56N S62D	460 pM	6/6
S26N S38N W56A	18 nM	5/6
S33K Q95D	not detected	0/6
S25I Q27P S28R Y97L L100P	1.2 nM	6/6
S25L V29E W56D E61L	620 pM	6/6
S25M V29A L30P Y31M K36W W56N	1.5 nM	6/6
S26L V29W W56E S62Q	570 pM	6/6
S25F V29Y W56N S62Q	350 pM	6/6
V29F W56G Q96L	9.0 nM	6/6
S25V R34E S58G S62A	20 nM	6/6
S25L V29E W56M	1.9 nM	6/6
V29Q W56H S62D	13 nM	6/6
S25L S26P Q27N V29T N35Q W56Q	950 pM	6/6
S25M S33E E61L S62I	31 nM	6/6

The opening 9 entries, copied out:

changes	Kd	detected
S28T L30A W56R	97 nM	5/6
Q27L Y31N W56K T59I S62R H98A	19 nM	6/6
Q27W V29Y W56A	6.9 nM	6/6
S25L S26W W56N T59Q	550 pM	6/6
S25L V29D W56N T59Q S62Q	590 pM	6/6
S28V L30G Y31M K36S W56D	1.4 nM	6/6
S25F Q27G V29Q W56N	1.7 nM	6/6
K24H Q27P L30E W56N T59M	850 pM	6/6
S25T S33W W56D	2.7 nM	6/6